# scFv variants of Ab-14 (light chain) against a SARS-CoV-2 spike peptide

The measurements come from Li et al. 2023 (doi:10.1038/s41467-023-39022-2) through the FLAb antibody collection.

Binding partner: SARS-CoV-2 spike HR2 peptide, sequence PDVDLGDISGINAS.

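The starting antibody came from a phage panning campaign against this peptide. Designed CDR sequences, proposed from the first random library and measured here. Several design methods are mixed in this list. Affinity was read by AlphaSeq, a pooled yeast mating assay with surface-displayed partners. Pairs that bind mate more often; barcode pairs of the diploids are counted by sequencing. The ratio of observed to expected reads was calibrated, replicate by replicate, on BCL2-family standards whose Kd was known from biolayer interferometry. Mating was done six times.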

Parent: Ab-14, a human scFv built as VH, three GGGGS repeats, VL. Only the CDRs of the light chain vary.
VH: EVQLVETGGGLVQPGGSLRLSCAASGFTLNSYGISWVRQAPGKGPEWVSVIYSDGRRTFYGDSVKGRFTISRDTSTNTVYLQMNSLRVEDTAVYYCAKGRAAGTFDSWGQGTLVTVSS
VL: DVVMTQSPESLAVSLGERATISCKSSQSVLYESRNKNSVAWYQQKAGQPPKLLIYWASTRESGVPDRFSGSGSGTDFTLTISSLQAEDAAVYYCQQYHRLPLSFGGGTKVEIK

The parent's light chain CDRs are KSSQSVLYESRNKNSVA, WASTRES, QQYHRLPLS; each variant's own CDRs replace them letter for letter.
The Kd shown is the geometric mean over detected replicates; a lower Kd is a better binder.
A pair that was not seen in any replicate is written "no signal"; this usually means weak binding, but a binder can also be missed.
The range of this assay differs from that of the first round, and the authors advise against merging the two.
Of ten entries with the parent sequence, four were seen in most replicates (averages 2.2 nM to 240 nM), three in one and three in none, so single entries are noisy.
In the paper, a design with two or fewer of six values counts as a poor binder.
Nonspecific signal, from three strains lacking the peptide, appeared in 4% of pairings of all light chain designs, centred on 430 nM (5% of these signals below 38 nM); values are not corrected for it. For each scFv, signals with the empty controls are counted beside the result.

{"CDR-L1": "KISYQYRFEQLGKNNIA", "CDR-L2": "EVVTRLK", "CDR-L3": "QQYHRLPLS", "Kd": "no signal", "replicates with signal": "0 of 6", "signal with controls": "0 of 18"}
{"CDR-L1": "KLSQSYLYESRNKNSVA", "CDR-L2": "HASTRCS", "CDR-L3": "QQYHRLPLS", "Kd": "3.4 nM", "replicates with signal": "6 of 6", "signal with controls": "3 of 18"}
{"CDR-L1": "KLMGSQLYESRWKNAVA", "CDR-L2": "EASTRES", "CDR-L3": "QQYHRLPLS", "Kd": "15 nM", "replicates with signal": "6 of 6", "signal with controls": "0 of 18"}
{"CDR-L1": "MVYGSMDQALRTHNSIA", "CDR-L2": "DNQTRES", "CDR-L3": "QQYDRLPLS", "Kd": "210 nM", "replicates with signal": "3 of 6", "signal with controls": "0 of 18"}
{"CDR-L1": "KLRGSTLYESRNKNSVA", "CDR-L2": "WASTRES", "CDR-L3": "QQYHRLPLS", "Kd": "1.6 nM", "replicates with signal": "6 of 6", "signal with controls": "0 of 18"}
{"CDR-L1": "KLYQNVGTMSHAKQSIA", "CDR-L2": "DMERRED", "CDR-L3": "QQYHRLPLS", "Kd": "2.1 nM", "replicates with signal": "6 of 6", "signal with controls": "1 of 18"}
{"CDR-L1": "KLSFSVLFESRNKNSVA", "CDR-L2": "NASTRES", "CDR-L3": "QQYHRLPLS", "Kd": "430 pM", "replicates with signal": "6 of 6", "signal with controls": "0 of 18"}
{"CDR-L1": "KVQQSWLYESRNINNVA", "CDR-L2": "NASKRES", "CDR-L3": "QQYHRLPLS", "Kd": "680 pM", "replicates with signal": "6 of 6", "signal with controls": "0 of 18"}
{"CDR-L1": "KVSLSVELESRLKNSVA", "CDR-L2": "EASTRCE", "CDR-L3": "QQYHRLPLS", "Kd": "1.8 nM", "replicates with signal": "5 of 6", "signal with controls": "1 of 18"}
{"CDR-L1": "KVSQSQLYESRNKNSVA", "CDR-L2": "DASTRES", "CDR-L3": "QQYHRLPLS", "Kd": "880 pM", "replicates with signal": "6 of 6", "signal with controls": "1 of 18"}
{"CDR-L1": "HSNGNLRMDERNKNHVA", "CDR-L2": "DTDVRES", "CDR-L3": "QQYMRLPLV", "Kd": "3.6 nM", "replicates with signal": "6 of 6", "signal with controls": "0 of 18"}
{"CDR-L1": "KLGQMTAIESRNNNSVA", "CDR-L2": "QMTTRES", "CDR-L3": "QQYDRLPLS", "Kd": "26 nM", "replicates with signal": "6 of 6", "signal with controls": "1 of 18"}
{"CDR-L1": "QMFFQLFEQGNRSNPIA", "CDR-L2": "HESMRET", "CDR-L3": "QQYASLPLT", "Kd": "no signal", "replicates with signal": "0 of 6", "signal with controls": "0 of 18"}
{"CDR-L1": "KLSEIAHFESKKKNSVA", "CDR-L2": "ENSTREE", "CDR-L3": "QQYDHLPLS", "Kd": "890 nM", "replicates with signal": "2 of 6", "signal with controls": "0 of 18"}
{"CDR-L1": "MIYGAERELGRAANSIA", "CDR-L2": "DNVTRYN", "CDR-L3": "QQYERLPLS", "Kd": "120 nM", "replicates with signal": "1 of 6", "signal with controls": "0 of 18"}
{"CDR-L1": "NVGQLMDGESRNKNSVA", "CDR-L2": "HQSTRED", "CDR-L3": "QHYHRLPLS", "Kd": "3.1 nM", "replicates with signal": "6 of 6", "signal with controls": "0 of 18"}
{"CDR-L1": "KWSQSVLYESRNKMSVA", "CDR-L2": "NGSTRES", "CDR-L3": "QQYHRLPLS", "Kd": "2.6 nM", "replicates with signal": "6 of 6", "signal with controls": "0 of 18"}
{"CDR-L1": "IVSQLMLWGMHLKNSIA", "CDR-L2": "EAQTRLN", "CDR-L3": "QQYDRLPLF", "Kd": "no signal", "replicates with signal": "0 of 6", "signal with controls": "0 of 18"}
{"CDR-L1": "KIGGVTNGISRNKNSVA", "CDR-L2": "EQSRRED", "CDR-L3": "QQYNRLPLS", "Kd": "970 pM", "replicates with signal": "6 of 6", "signal with controls": "1 of 18"}
{"CDR-L1": "KQSQQDEYQSRNKNQVA", "CDR-L2": "NASTRYS", "CDR-L3": "QQYHRLPLS", "Kd": "1.3 nM", "replicates with signal": "6 of 6", "signal with controls": "0 of 18"}
{"CDR-L1": "KLYFNVGTMSHNKQSIA", "CDR-L2": "DMERRED", "CDR-L3": "QQYHRLPLS", "Kd": "1.1 nM", "replicates with signal": "6 of 6", "signal with controls": "2 of 18"}

Excerpt, the first 3 entries:

{"CDR-L1": "KISYQYRFEQLGKNNIA", "CDR-L2": "EVVTRLK", "CDR-L3": "QQYHRLPLS", "Kd": "no signal", "replicates with signal": "0 of 6", "signal with controls": "0 of 18"}
{"CDR-L1": "KLSQSYLYESRNKNSVA", "CDR-L2": "HASTRCS", "CDR-L3": "QQYHRLPLS", "Kd": "3.4 nM", "replicates with signal": "6 of 6", "signal with controls": "3 of 18"}
{"CDR-L1": "KLMGSQLYESRWKNAVA", "CDR-L2": "EASTRES", "CDR-L3": "QQYHRLPLS", "Kd": "15 nM", "replicates with signal": "6 of 6", "signal with controls": "0 of 18"}